This is a selection; strong and weak results do not stand in their true shares. Some of these compounds have results that are not shown, active ones among them. Activity calls are given as the source filed them.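 The calls were made as follows: active = NADPH fluorescence slope more negative than the mean of all samples by about 3 SD, 99.7% confidence; inactive = the rest.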

Protein sequences, listed by entry. Tags and fused reporters are not part of them.
UniProt P62483, whole entry: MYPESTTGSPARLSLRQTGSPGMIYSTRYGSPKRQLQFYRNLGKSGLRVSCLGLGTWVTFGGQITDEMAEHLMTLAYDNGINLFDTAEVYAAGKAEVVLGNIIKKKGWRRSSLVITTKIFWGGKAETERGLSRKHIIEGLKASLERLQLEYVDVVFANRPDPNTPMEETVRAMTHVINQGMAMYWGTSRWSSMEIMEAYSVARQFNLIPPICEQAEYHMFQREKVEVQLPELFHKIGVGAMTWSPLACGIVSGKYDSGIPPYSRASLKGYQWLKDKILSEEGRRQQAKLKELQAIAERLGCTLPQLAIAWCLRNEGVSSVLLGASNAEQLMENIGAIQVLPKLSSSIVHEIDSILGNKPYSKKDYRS

Consider one compound from PubChem BioAssay AID623 (Vanderbilt High Throughput Screening Facility, 2007).

The test deals with Voltage-gated potassium channel subunit beta-2 (Rattus norvegicus) (UniProt P62483). Kind of test: KvBeta positive modulators, primary screen, biochemical, NADPH fluorescence (AID 623).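 Also: fluorescence intensity change per second fitted from 20 to 320 s.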 To be noted: Recombinant KvBeta, NADPH fluorescence decrease slope, 10 min; at 10 µM; hits give low values.
Consider `O=C(OC1CN2CCC1CC2)C(CO)(c1ccccc1)c1ccccc1` (stereo unspecified), for which the NADPH fluorescence slope was inactive: -7e-05.
